US10562947B2, “Compositions and methods for preventing or treating diseases, conditions or processes characterized by aberrant fibroblast proliferation and extracellular matrix deposition” (MOERAE MATRIX, INC., priority 2011, dated 2020)

Amino acid sequences for entries named in this document (tags omitted). A change or cut given only in a name is not applied to a line headed by its entry.
UniProt Q9P0L2: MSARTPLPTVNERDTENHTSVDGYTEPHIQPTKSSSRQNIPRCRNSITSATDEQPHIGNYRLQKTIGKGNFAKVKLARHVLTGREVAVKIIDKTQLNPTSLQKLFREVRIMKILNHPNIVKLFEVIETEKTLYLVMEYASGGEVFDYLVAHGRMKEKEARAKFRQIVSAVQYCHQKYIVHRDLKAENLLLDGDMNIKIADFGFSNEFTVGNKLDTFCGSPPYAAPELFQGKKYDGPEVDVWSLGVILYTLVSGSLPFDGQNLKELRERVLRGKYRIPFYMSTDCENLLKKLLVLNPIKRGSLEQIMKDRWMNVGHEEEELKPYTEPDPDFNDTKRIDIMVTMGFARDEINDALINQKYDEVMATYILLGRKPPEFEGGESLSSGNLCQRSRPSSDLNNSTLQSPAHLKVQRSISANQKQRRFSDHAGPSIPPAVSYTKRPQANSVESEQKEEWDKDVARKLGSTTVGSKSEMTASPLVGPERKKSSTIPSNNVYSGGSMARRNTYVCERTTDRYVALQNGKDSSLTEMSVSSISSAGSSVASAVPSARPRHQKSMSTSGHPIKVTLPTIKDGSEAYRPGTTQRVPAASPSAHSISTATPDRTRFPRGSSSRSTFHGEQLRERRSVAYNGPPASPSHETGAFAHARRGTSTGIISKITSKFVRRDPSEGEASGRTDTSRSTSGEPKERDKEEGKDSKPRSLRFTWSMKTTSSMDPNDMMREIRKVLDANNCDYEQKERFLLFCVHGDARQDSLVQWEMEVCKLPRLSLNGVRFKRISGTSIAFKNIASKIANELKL

Key:
MARK1(h) = MARK1(h) (Homo sapiens, UniProt Q9P0L2); test: Kinase Profiling Assay; assay type: biochemical; details: 100 μM peptide
Method in brief: (§1)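 Peptides designed to inhibit MK2 were checked against a broad human kinase panel (266 enzymes), with duplicate measurement of every activity.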

PRAK(h) = target: T1, PRAK(h) (Homo sapiens, UniProt Q8IW41); test: Kinase Profiling Assay; assay type: biochemical; details: 100 μM peptide
T1 construct: purchased Millipore (IC50 Profiler Express service)
T1 sequence (Q8IW41 1-473): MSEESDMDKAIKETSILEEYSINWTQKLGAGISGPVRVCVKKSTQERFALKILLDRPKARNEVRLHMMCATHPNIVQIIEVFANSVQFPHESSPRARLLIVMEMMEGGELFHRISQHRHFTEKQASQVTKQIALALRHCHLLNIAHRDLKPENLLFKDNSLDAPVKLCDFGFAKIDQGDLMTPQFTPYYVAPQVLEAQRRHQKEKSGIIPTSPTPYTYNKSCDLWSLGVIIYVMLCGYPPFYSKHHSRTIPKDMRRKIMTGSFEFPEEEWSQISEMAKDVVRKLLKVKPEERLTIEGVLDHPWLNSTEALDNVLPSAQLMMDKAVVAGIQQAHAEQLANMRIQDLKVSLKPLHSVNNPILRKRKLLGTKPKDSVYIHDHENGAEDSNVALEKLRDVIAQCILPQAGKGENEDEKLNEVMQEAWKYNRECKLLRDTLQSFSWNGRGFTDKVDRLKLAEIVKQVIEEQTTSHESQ
Method in brief: as §1

**Q.** What does the source list for “YARAAARQARAKALNRQLGVA (Mammalian) [MMI-0200]”?
**A.** MARK1(h) % activity (MARK1(h)): 102%; PRAK(h) % activity (PRAK(h)): 115%
